The source of these data is patent US6623933B1 (priority 1999, dated 2003).

Sequences of proteins named here, by UniProt entry; tags and fusion partners are left off. Residues count along the entry.
UniProt Q00959, 23-1464: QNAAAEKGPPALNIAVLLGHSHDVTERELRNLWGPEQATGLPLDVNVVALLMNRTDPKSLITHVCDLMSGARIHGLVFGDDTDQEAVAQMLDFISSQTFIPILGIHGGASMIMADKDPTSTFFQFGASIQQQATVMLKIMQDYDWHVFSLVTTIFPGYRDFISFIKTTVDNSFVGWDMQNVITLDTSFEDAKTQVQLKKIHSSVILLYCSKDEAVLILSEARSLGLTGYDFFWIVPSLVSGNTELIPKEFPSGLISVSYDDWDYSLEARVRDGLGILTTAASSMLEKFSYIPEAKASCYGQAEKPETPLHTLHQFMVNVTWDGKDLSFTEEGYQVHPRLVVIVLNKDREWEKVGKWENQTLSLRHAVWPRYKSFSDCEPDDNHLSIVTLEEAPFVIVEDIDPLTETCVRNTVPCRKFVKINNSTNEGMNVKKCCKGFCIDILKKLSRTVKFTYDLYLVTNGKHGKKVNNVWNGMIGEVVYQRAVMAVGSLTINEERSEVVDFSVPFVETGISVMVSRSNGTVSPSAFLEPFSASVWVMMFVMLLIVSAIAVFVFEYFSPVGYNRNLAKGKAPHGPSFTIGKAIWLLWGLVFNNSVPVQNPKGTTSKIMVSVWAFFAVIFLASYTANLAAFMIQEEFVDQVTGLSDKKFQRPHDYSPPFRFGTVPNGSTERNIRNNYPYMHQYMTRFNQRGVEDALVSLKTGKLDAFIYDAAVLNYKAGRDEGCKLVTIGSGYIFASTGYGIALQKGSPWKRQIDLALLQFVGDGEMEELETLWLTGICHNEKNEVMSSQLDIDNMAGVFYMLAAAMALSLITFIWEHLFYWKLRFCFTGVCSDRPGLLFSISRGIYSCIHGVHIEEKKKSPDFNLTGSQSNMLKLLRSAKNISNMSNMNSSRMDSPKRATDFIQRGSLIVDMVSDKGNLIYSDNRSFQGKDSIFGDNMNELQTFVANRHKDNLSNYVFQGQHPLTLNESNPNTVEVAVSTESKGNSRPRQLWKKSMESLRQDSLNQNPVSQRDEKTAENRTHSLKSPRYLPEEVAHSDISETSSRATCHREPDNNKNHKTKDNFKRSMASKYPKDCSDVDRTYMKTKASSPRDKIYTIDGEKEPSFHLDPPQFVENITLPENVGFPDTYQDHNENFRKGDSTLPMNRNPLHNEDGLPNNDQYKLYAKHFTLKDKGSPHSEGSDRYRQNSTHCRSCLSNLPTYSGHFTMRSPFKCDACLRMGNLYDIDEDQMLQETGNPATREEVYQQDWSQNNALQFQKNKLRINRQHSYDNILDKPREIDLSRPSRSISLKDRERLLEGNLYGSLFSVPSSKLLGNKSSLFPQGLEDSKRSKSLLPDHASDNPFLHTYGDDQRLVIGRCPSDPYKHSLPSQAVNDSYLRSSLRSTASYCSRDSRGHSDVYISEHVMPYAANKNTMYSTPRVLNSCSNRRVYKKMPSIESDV
UniProt Q00961, 20-1237: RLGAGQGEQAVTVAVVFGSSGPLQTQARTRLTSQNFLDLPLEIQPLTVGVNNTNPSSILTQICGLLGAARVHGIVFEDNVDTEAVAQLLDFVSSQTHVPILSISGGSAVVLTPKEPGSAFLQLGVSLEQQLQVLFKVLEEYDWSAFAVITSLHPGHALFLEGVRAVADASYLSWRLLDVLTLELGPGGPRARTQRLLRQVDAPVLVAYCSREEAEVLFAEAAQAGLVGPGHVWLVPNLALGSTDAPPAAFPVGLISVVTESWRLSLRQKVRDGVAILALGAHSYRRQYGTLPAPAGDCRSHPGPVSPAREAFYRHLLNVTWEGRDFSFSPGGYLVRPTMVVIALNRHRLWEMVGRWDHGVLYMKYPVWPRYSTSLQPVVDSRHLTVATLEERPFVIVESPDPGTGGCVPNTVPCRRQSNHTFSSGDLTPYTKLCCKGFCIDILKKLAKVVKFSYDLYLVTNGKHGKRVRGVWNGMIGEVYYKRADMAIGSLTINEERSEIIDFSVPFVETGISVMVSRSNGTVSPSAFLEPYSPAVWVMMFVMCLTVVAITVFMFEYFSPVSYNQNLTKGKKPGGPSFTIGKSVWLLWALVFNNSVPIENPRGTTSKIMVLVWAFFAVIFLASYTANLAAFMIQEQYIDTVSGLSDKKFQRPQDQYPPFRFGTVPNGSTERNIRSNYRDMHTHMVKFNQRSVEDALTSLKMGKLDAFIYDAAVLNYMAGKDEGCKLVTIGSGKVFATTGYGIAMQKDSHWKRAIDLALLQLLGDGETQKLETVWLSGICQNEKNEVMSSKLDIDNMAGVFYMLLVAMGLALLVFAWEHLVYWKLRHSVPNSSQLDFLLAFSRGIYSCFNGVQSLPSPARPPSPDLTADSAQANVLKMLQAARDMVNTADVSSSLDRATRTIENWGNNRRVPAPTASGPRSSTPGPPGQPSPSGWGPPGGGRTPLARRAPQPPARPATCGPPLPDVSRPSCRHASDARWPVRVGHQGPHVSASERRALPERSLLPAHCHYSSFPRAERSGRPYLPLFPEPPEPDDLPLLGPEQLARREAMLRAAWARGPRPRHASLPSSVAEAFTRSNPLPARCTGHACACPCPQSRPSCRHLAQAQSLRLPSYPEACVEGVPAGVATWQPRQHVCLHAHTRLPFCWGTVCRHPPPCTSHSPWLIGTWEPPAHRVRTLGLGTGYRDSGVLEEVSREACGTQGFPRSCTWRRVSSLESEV
UniProt Q62645, 28-1323: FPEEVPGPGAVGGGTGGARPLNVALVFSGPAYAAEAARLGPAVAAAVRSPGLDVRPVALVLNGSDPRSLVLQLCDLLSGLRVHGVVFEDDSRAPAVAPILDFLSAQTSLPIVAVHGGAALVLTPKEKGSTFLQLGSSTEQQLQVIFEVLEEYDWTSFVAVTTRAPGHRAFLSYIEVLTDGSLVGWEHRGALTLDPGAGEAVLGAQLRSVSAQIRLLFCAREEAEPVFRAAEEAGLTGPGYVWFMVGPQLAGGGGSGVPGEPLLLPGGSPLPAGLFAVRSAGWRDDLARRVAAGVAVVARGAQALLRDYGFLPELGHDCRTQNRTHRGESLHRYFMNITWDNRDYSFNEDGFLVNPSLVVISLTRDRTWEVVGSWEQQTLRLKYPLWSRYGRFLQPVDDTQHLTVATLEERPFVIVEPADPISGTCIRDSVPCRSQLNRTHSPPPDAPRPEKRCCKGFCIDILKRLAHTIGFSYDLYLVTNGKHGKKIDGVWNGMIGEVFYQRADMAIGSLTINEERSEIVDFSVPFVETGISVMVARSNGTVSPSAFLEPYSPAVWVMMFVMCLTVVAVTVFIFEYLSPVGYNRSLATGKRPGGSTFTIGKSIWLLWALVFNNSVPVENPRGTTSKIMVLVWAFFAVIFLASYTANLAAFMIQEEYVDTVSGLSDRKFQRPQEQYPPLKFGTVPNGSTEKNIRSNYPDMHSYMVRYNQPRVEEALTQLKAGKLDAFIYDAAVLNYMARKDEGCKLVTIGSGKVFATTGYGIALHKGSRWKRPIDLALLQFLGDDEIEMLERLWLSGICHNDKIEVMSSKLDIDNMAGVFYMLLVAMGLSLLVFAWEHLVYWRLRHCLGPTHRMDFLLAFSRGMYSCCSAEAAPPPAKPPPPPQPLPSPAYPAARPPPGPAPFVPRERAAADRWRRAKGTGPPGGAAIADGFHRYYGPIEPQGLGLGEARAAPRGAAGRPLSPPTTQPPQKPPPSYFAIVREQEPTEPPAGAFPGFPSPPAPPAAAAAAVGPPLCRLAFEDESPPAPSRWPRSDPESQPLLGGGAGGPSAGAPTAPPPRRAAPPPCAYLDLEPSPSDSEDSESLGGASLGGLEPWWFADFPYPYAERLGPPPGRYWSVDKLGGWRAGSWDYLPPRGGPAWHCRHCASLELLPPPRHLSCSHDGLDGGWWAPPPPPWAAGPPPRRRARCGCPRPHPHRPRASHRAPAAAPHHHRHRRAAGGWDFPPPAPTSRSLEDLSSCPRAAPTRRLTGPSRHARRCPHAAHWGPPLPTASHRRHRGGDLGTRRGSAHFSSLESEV
UniProt Q00960, 27-1482: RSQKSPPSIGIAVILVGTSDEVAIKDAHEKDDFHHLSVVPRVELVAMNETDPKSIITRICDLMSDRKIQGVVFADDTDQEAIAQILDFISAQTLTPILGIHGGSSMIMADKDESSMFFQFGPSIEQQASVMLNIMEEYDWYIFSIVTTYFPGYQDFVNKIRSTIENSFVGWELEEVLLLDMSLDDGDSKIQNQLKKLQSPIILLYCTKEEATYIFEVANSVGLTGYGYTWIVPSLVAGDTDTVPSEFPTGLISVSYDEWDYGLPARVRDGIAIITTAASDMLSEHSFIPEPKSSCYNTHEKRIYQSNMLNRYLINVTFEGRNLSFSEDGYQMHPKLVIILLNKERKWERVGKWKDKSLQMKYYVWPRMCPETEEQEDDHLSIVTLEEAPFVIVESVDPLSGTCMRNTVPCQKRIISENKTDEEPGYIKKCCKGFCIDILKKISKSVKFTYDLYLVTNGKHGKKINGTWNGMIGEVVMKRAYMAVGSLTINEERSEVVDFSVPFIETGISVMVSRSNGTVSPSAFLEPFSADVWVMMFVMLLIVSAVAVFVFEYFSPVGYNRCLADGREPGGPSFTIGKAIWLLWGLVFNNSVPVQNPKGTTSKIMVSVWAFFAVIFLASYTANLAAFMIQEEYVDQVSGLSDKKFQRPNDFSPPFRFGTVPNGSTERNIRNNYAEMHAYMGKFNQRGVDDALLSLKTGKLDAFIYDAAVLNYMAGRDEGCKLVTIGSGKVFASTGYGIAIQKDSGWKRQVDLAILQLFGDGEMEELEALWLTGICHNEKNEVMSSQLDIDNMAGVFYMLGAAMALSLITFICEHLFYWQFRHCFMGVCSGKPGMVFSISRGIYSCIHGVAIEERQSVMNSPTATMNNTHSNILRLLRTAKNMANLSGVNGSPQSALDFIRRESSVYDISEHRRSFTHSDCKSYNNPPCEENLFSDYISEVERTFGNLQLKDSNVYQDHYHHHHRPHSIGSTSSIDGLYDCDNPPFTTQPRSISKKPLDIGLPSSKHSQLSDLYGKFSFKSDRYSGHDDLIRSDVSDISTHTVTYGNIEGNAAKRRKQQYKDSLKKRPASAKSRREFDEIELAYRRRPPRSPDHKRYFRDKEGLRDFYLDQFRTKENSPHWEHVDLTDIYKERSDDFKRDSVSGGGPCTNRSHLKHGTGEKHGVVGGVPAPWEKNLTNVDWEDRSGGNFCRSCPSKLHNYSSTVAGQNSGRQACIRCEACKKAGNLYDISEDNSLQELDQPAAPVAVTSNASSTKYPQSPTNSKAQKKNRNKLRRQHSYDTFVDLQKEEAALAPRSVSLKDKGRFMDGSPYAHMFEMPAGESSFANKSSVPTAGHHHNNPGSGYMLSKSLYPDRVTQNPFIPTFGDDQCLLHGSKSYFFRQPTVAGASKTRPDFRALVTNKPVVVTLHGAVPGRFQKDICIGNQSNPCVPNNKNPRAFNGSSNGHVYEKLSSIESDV
UniProt P42260, 32-908: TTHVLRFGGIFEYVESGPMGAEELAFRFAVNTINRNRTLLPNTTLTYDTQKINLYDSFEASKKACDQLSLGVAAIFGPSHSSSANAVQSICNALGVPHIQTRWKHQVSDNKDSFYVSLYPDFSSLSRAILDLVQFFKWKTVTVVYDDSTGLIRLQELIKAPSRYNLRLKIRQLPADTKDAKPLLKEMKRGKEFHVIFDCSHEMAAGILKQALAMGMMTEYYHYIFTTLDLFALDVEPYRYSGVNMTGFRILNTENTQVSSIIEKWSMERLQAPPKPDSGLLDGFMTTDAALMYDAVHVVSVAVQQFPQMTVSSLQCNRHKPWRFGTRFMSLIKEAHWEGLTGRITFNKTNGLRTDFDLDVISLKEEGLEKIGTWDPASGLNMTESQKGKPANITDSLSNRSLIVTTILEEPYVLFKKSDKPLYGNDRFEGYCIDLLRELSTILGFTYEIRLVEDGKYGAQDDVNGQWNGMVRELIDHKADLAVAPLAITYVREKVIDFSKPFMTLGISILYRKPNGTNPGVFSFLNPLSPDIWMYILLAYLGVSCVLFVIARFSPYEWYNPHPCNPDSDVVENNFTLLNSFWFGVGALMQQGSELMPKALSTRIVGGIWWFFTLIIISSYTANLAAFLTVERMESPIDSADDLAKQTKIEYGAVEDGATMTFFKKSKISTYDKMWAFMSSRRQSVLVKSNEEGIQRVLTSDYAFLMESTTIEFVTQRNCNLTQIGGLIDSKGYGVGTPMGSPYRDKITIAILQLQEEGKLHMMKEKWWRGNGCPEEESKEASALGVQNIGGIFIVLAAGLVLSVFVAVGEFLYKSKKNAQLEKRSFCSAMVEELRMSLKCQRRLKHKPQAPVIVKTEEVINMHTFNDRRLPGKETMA

SMILES strings stand for the structures. Read-outs that look alike come from different tables or passages of the source.

The target of assay [1] is NR1011/NR2A (Rattus norvegicus, UniProt P35439+Q00959).
For assay [2], the target named is NR1/NR2C (NR1100) (Rattus norvegicus, UniProt P35439+Q00961). As to conditions: no PS.
For assay [3], the target named is NR1000/NR2A (Rattus norvegicus, UniProt P35439+Q00959). As to conditions: presence of 100 mM PS.
Assay [4] addresses NR1/NR2D (NR1100) (Rattus norvegicus, UniProt P35439+Q62645). As to conditions: no PS.
The target of assay [5] is NR1101/NR2A (Rattus norvegicus, UniProt P35439+Q00959).
For assay [6], the target named is NR1001/NR2A (Rattus norvegicus, UniProt P35439+Q00959).
For assay [7], the target named is NR1100/NR2A (Rattus norvegicus, UniProt P35439+Q00959). The conditions noted are these: absence of PS.
In assay [8] the target is NR1010/NR2A (Rattus norvegicus, UniProt P35439+Q00959). The conditions noted are these: absence of PS.
For assay [9], the target named is NR1/NR2B (NR1100) (Rattus norvegicus, UniProt P35439+Q00960). The conditions noted are these: no PS.
Assay [10] addresses NR1111/NR2A (Rattus norvegicus, UniProt P35439+Q00959).
Assay [11] addresses NR1/NR2A (NR1100) (Rattus norvegicus, UniProt P35439+Q00959). As to conditions: no PS.
Assay [12] concerns the target T1, GluR6 kainate receptor (Rattus norvegicus, UniProt P42260).
T1 construct: expressed in transfected cells; host or cells: Xenopus oocytes injected with GluR6 cRNA (concanavalin A treated)
The assay is described as follows: Kainate-induced currents, Xenopus oocytes injected with GluR6 cRNA. The format is cell-based. The text has this:
Plasmids were obtained from the following individuals: Dr. Suzanne Zukin (Albert Einstein College of Medicine, Bronx, N.Y.), NR1100; Dr. Shigetada Nakanishi (Kyoto University Faculty of Medicine, Kyoto, Japan), NR2A; Dr. Stephen Heinemann (Salk Institute, San Diego, Calif.), GluR1 (flop), GluR3 (flop), and GluR6. Plasmids were linearized with BamH1 (NR1100), XhoI (NR2A, GluR1, GluR3) or XbaI (GluR6) prior to in vitro transcription with T3 (GluR1, GluR3, GluR6) or T7 (NR1100, NR2A) RNA polymerase using the Message Machine kit (Ambion, Austin, Tex.). […] RNA solutions (50-70 nl) were injected into oocytes for delivery of NR1100 (5 ng), NR1100:NR2A (1:10 ng), GluR1 (5 ng). GluR3 (5 ng), or GluR6 (20 ng). Oocytes were incubated in ND96 at 18-20° C. for 3-7 days prior to electrophysiological recording.
Steroid solutions were prepared as 70-100 mM frozen stocks in dimethyl sulfoxide (DMSO). The final DMSO concentration of all recording solutions was between 0.1% to 0.5% and was constant within an experiment.
Perfusion control and data acquisition were carried out using an automated oocyte electrophysiology workstation that was developed for the rapid collection of concentration-response data and real-time waveform analysis (Yaghoubi et al., Soc. Neurosci. Abstr. 20: 1109 (1995)). […]
Results are expressed as mean±S.E.M. Statistical comparisons were made using Student's t-test.

For the molecule `N[C@@H](CCC(=O)O)C(=O)O` [L-glutamate], the “agonist nHill” value worked out at 1.17 ± 0.03 in assay [1] (absence of PS) and 1.17 ± 0.08 in assay [3]. For the same molecule, the “agonist nH” value in assay [2] is 1.27 ± 0.06; in assay [4], 1.26 ± 0.12.

`NCC(=O)O` [glycine]: the “agonist nHill” value in [5] (absence of PS) amounted to 1.37 ± 0.13; in [5] (presence of 100 mM PS) it was 1.32 ± 0.09; in assay [6] (absence of PS), 1.25 ± 0.07; in assay [6] (presence of 100 mM PS), 1.30 ± 0.13; in assay [7] it was 1.23 ± 0.07; in assay [1] (absence of PS) it was 1.30 ± 0.05. Further, the “agonist nHill” value in assay [1] (presence of 100 mM PS) is 1.34 ± 0.18; in assay [8] it was 1.32 ± 0.07; in assay [3], 1.12 ± 0.05; in assay [10] (absence of PS), 1.49 ± 0.06; in assay [10] (presence of 100 mM PS) it was 1.26 ± 0.10. The entries for the “agonist Emax” value in [1] (absence of PS), in assay [9] and in assay [11] (normalized to 200 μM NMDA plus 10 μM glycine) were 1.67 ± 0.08, 1.49 ± 0.03 and 1.58 ± 0.04, respectively. Moreover, the figures for the “agonist nH” value in assay [2], in assay [4] and in assay [11] were 1.18 ± 0.05, 1.12 ± 0.08 and 1.58 ± 0.04, respectively.

For `C=C(C)[C@H]1CN[C@H](C(=O)O)[C@H]1CC(=O)O` [kainate], the “kainate nH” value is recorded as 1.2 in [12] (+100 μM PS) and 1.1 in [12] (control).
